Data as given in ChEMBL document CHEMBL1142487, “Design, synthesis, and structure-activity relationship of novel opioid kappa-agonists” (Bioorg Med Chem, 2008).

System: Mus musculus
Assay: Antinociceptive activity in sc dosed mouse assessed as inhibition of acetic acid-induced writhing administered 15 mins before acetic acid challenge

How did the ED50 turn out when `CN(C(=O)Cc1ccc(Cl)c(Cl)c1)C1CCCCC1N1CCCC1` (stereo unspecified) was run?
The ED50 was 1.16 mg/kg.
